## Measured logP (octanol/water) values of organic chemicals

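The OPERA project collected these measurements from public sources as training and test data for property models. One number stands for a compound and property, with no spread given. Conditions of the individual experiments are not part of the data. The measured form (salt, isomer or mixture) is not always the one drawn. Unmarked limits or estimates from the upstream databases cannot be ruled out.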

The octanol-water partition coefficient is given as log10; larger values mean a more lipophilic compound.

C[C@]12CCC(=O)C=C1CC[C@H]1[C@@H]3CC[C@](O)(C(=O)CO)[C@@]3(C)CC(=O)[C@@]12F [9alpha-Fluorocortisone] is reported with logP 1.37. C=CC(C)=CCCC(=C)C [3,7-Dimethylocta-1,3,7-triene] has logP 4.17. CC(C)c1ccc(-c2ccccc2)cc1 [4-Isopropylbiphenyl] is reported with logP 5.51. Listed for Cc1ccc(N2C(=O)CCC2=O)cc1 [2,5-Pyrrolidinedione, 1-(4-methylphenyl)-]: logP 0.58. Cc1ccc(N=Nc2c(O)ccc3ccccc23)c([N+](=O)[O-])c1 [C.I. Pigment Red 3] is reported with logP 3.7. Listed for COc1ccc(/N=N/c2c(S(=O)(=O)[O-])cc3cc(Nc4nc(Nc5ccc6c(O)c(/N=N/c7ccc(OC)cc7S(=O)(=O)[O-])c(S(=O)(=O)[O-])cc6c5)nc(N5CCOCC5)n4)ccc3c2O)c(S(=O)(=O)[O-])c1.[Na+].[Na+].[Na+].[Na+]: logP -4.108.

CN(C)CC(c1ccc(O)cc1)C1(O)CCCCC1 (stereo not drawn) [O-Desmethylvenlafaxine] is reported with logP 0.33. Cc1cccc2c1c([N+](=O)[O-])cc[n+]2[O-] [5-Methyl-4-nitro-1-oxo-1lambda~5~-quinoline] is reported with logP 1.36. N[C@@H](CC(=O)N1CCn2c(nnc2C(F)(F)F)C1)Cc1cc(F)c(F)cc1F [Sitagliptin] has logP 1.5. Listed for CCCC(=O)OC(C)(C)Cc1ccccc1 [alpha,alpha-Dimethylphenethyl butyrate]: logP 4.7. C[Si]1(C)N[Si](C)(C)N[Si](C)(C)N1 [2,2,4,4,6,6-Hexamethylcyclotrisilazane] has logP -0.38. For CC(=O)CC(=O)Nc1ccccc1 [Acetoacetanilide] the data give logP 0.93.

The entry for Cc1cc(S(=O)(=O)[O-])ccc1/N=N/c1c(O)ccc(/N=N/c2ccccc2C(=O)[O-])c1[O-].Cc1cc(S(=O)(=O)[O-])ccc1/N=N/c1c(O)ccc(/N=N/c2ccccc2C(=O)[O-])c1[O-].[Cr+3].[Na+].[Na+].[Na+] [C.I. Acid Brown 425] lists logP -3.4. The entry for Cc1ccc(NCCO)cc1O [2-Methyl-5-hydroxyethylaminophenol] lists logP 0.772. CC1=NN(c2ccc(S(=O)(=O)O)cc2)C(=O)C1 has logP -2.04. CC(C)(C)NCC(O)COc1cccc2c1CCC(=O)N2 (stereo not drawn) [Carteolol] has logP 1.1. For CC(C)N(c1nn(C)/c(=N\N=C2C=CC(=[N+](C)C)C=C2)s1)C(C)C.COS(=O)(=O)[O-] the data give logP -0.399. The entry for CN=C(O)NNC [N,2-Dimethylhydrazine-1-carboximidic acid] lists logP -1.57.

CCN(CC)CCCNC(=O)c1ccc(N)cc1.Cl [4-Amino-N-[3-(diethylamino)propyl]benzamide hydrochloride] is reported with logP -2.88. The entry for NC1CCC1.NC1CCC1.[Cl-].[Cl-].[Pt+2] [Platinum(2+) chloride--cyclobutanamine (1/2/2)] lists logP 0.36. CC(C)(C)NCC(O)COc1cccc2nc(O)[nH]c12 (stereo not drawn) has logP 1.3. Listed for CC1=C(/C=C/C(C)=C/C=C/C(C)=C/CO)C(C)(C)CC=C1 [Vitamin A2]: logP 7.41. For C=Cc1ccccc1Cl [2-Chlorostyrene] the data give logP 3.58. For O=[N+]([O-])c1ccc2ccc[n+]([O-])c2c1 [7-Nitro-1-oxo-1lambda~5~-quinoline] the data give logP 0.36.

For CN(N=O)C(=O)N[C@@H](C=O)[C@@H](O)[C@H](O)[C@H](O)CO [Streptozotocin] the data give logP -1.45. For CCCCCc1ccc2c(c1)C(=O)c1ccccc1C2=O the data give logP 5.59. Listed for CC(C)CCCC(C)CCCC(C)CCCCC(C)CCCC(C)CCCC(C)C (stereo not drawn) [Squalane]: logP 5.49. Listed for OC[C@H]1OC(n2cnc3c(=S)cc[nH]c32)[C@H](O)[C@@H]1O (stereo in doubt): logP -0.6. Cc1nn(-c2ccccc2)c(=O)[c-]1/N=N/c1cc(S(C)(=O)=O)c([N+](=O)[O-])cc1[O-].Cc1nn(-c2ccccc2)c(=O)[c-]1/N=N/c1cc(S(C)(=O)=O)c([N+](=O)[O-])cc1[O-].[Cr+3].[Na+] is reported with logP 1.2. For CCN(CC)c1ccc(C=O)cc1 [4-(Diethylamino)benzaldehyde] the data give logP 2.72.

CCN(CCC#N)c1ccc(N=Nc2ccc([N+](=O)[O-])cc2C#N)cc1 has logP 3.67. The entry for CCn1c(O)c(/N=N/c2ccc(S(=O)(=O)c3ccc(/N=N/c4c(C)c(CS(=O)(=O)[O-])c(=O)n(CC)c4O)cc3)cc2)c(C)c(CS(=O)(=O)[O-])c1=O.[Na+].[Na+] lists logP -3.4. NC(=O)c1ccc[n+](C2OC(COP(=O)([O-])OP(=O)(O)OCC3OC(n4cnc5c(N)ncnc54)C(OP(=O)([O-])[O-])C3O)C(O)C2O)c1.[Na+].[Na+] (stereo not drawn) [Disodium NADP] is reported with logP -4.4. For NC(=O)Nc1cc(Nc2nc(N)nc(Cl)n2)ccc1/N=N/c1cc2c(S(=O)(=O)[O-])cc(S(=O)(=O)[O-])cc2cc1S(=O)(=O)[O-].[Na+].[Na+].[Na+] [C.I. Reactive Orange 12] the data give logP -5.5. The entry for O=C([O-])CCCCCCCCC(=O)[O-].[Li+].[Li+] [Dilithium sebacate] lists logP 0.001. c1ccc2c(c1)-c1ccc3ccc4cccc5cc-2c1c3c45 [Indeno[1,2,3-cd]pyrene] is reported with logP 6.58.

O=C1OC(C(O)CO)C([O-])=C1OP(=O)([O-])[O-].[Na+].[Na+].[Na+] (stereo not drawn) [Sodium ascorbyl phosphate] is reported with logP -4. The entry for C=CCC(C)C [4-Methyl-1-pentene] lists logP 3.375. CCN(C(=O)c1ccccc1)c1ccc(/N=N/c2cc(S(=O)(=O)[O-])c3ccccc3c2O)c(C)c1.[Na+] [C.I. Acid Red 6, monosodium salt] has logP -0.53. CN1CN(C)CN(C)C1 [1,3,5-Trimethyl-1,3,5-triazacyclohexane] has logP 0.76. CCCN1Cn2c(nc3ccccc3c2=O)C1C (stereo not drawn) [3-Methyl-2-propyl-1,3-dihydroimidazo[5,1-b]quinazolin-9-one] has logP 1.4. For CCN(CC)S(=O)(=O)c1ccc(OC)c(/N=N/c2cc(S(=O)(=O)[O-])c3ccccc3c2O)c1.[Na+] the data give logP -1.019.

CN(C)CCCN [3-(Dimethylamino)propylamine] has logP -0.352. Clc1ccc(-c2cccc(Cl)c2Cl)c(Cl)c1 has logP 5.76. The entry for S=C([S-])NCCNC(=S)[S-].[Zn+2] [Zineb] lists logP 1.3. Listed for C#C[C@]1(O)CC[C@H]2[C@@H]3CCC4=CCCC[C@@H]4[C@H]3C(=C)C[C@@]21CC [Desogestrel]: logP 4. For Cc1cccc(N(CCO)CCO)c1 [Ethanol, 2,2'-[(3-methylphenyl)imino]bis-] the data give logP 1.9. C/C(=C\C[P+](c1ccccc1)(c1ccccc1)c1ccccc1)C1OCC(C)(C)CO1.[Cl-] has logP -0.89.

The first 3 entries again:

| compound | name | logP |
|---|---|---|
| C[C@]12CCC(=O)C=C1CC[C@H]1[C@@H]3CC[C@](O)(C(=O)CO)[C@@]3(C)CC(=O)[C@@]12F | 9alpha-Fluorocortisone | 1.37 |
| C=CC(C)=CCCC(=C)C | 3,7-Dimethylocta-1,3,7-triene | 4.17 |
| CC(C)c1ccc(-c2ccccc2)cc1 | 4-Isopropylbiphenyl | 5.51 |

Data: OPERA 2.9 data sets, kmansouri/OPERA on GitHub.